Protein sequences, listed by entry. Tags and fused reporters are not part of them.
UniProt Q9P2K8, whole entry: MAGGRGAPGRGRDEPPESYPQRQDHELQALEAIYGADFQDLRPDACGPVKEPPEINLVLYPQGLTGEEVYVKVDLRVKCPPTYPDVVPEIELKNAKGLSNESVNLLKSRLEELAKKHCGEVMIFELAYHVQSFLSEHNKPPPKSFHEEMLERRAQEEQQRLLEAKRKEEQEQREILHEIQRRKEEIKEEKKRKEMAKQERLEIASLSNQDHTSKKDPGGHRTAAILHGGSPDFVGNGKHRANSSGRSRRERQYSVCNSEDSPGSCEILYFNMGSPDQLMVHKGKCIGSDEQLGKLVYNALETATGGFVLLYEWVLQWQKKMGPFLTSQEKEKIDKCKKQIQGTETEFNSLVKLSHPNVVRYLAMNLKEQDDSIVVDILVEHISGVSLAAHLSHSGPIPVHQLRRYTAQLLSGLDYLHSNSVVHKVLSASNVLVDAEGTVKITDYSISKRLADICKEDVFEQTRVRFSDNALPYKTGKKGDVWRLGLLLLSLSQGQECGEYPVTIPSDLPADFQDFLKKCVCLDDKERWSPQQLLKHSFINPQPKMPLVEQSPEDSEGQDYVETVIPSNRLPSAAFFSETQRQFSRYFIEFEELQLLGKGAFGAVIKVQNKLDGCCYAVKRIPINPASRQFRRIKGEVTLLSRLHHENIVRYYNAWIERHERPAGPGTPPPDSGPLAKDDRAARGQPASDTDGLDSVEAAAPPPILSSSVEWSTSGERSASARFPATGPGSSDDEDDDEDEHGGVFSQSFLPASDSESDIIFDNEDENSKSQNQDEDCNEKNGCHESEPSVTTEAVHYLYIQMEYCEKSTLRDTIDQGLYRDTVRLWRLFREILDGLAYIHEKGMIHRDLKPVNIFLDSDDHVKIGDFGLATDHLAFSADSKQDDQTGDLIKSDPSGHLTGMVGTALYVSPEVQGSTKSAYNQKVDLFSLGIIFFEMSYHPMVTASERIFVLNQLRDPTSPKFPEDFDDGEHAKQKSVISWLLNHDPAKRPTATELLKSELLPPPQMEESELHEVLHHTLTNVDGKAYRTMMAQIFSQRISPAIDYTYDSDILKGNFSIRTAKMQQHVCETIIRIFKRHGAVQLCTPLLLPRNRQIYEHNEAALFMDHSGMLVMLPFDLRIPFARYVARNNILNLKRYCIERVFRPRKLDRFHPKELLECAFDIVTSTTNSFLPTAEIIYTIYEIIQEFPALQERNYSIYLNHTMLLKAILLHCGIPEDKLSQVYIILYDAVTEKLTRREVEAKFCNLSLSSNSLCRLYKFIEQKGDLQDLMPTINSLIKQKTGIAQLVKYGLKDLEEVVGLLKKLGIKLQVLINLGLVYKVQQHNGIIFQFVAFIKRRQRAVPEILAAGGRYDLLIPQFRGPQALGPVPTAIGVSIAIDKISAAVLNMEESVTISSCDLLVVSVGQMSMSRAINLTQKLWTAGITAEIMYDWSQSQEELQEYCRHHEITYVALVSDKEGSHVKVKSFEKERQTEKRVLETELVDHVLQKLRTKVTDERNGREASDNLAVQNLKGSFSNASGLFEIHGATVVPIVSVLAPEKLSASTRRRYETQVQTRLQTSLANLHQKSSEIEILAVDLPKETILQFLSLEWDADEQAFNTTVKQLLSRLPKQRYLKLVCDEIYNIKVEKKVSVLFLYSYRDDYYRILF

In patent US20220388964A1 (HiberCell, Inc., priority 2019, published 2022):

Target: GCN2 (Homo sapiens, UniProt Q9P2K8)
Test: TR-FRET biochemical assay for inhibition of GCN2 (Example 106, for Example 1-4BB)
Settings: Table 9

Cc1ncsc1S(=O)(=O)Nc1ccc(F)c(-c2ccc3c(-c4ncc[nH]4)n[nH]c3c2F)c1F and Cc1nc(C)c(S(=O)(=O)Nc2ccc(F)c(-c3ccc4c(-c5ncc[nH]5)n[nH]c4c3F)c2F)s1 cannot be ordered by IC50: less than 500 nM for the first, less than 500 nM for the second.

CC1=CCc2c1cc(F)cc2S(=O)(=O)Nc1ccc(F)c(-c2ccc3c(-c4ncc[nH]4)n[nH]c3c2F)c1F and O=C1CCc2c1cc(F)cc2S(=O)(=O)Nc1ccc(F)c(-c2ccc3c(-c4ncc[nH]4)n[nH]c3c2F)c1F cannot be ordered by IC50: less than 500 nM for the first, less than 500 nM for the second.

COc1nc(C)c(F)cc1S(=O)(=O)Nc1ccc(F)c(-c2ccc3c(-c4ncc[nH]4)n[nH]c3c2F)c1F and Cc1c(C(C)O)cc(F)cc1S(=O)(=O)Nc1ccc(F)c(-c2ccc3c(-c4ncc[nH]4)n[nH]c3c2F)c1F (stereo not shown) cannot be ordered by IC50: less than 500 nM for the first, less than 500 nM for the second.

First: Cc1c(C(O)C(F)(F)F)cc(F)cc1S(=O)(=O)Nc1ccc(F)c(-c2ccc3c(-c4ncc[nH]4)n[nH]c3c2F)c1F (stereo not shown)
Second: Cc1c(C(C)(C)O)cc(F)cc1S(=O)(=O)Nc1ccc(F)c(-c2ccc3c(-c4ncc[nH]4)n[nH]c3c2F)c1F
The IC50 of the first is higher: 500 to 2500 nM for the first, less than 500 nM for the second. The second is the more potent here.

O=S(=O)(Nc1ccc(F)c(-c2ccc3c(-c4ncc[nH]4)n[nH]c3c2F)c1F)c1cc(F)cc2c1CC[C@@H]2O and O=S(=O)(Nc1ccc(F)c(-c2ccc3c(-c4ncc[nH]4)n[nH]c3c2F)c1F)c1cc(F)cc2c1CCC2O (stereo not shown) cannot be ordered by IC50: less than 500 nM for the first, less than 500 nM for the second.

O=C1CCOc2c1cc(F)cc2S(=O)(=O)Nc1ccc(F)c(-c2ccc3c(-c4ncc[nH]4)n[nH]c3c2F)c1F and O=S(=O)(Nc1ccc(F)c(-c2ccc3c(-c4ncc[nH]4)n[nH]c3c2F)c1F)c1cc(F)cc2c1OCCC2O (stereo not shown) cannot be ordered by IC50: less than 500 nM for the first, less than 500 nM for the second.

First: Cc1ncc(C#N)cc1S(=O)(=O)Nc1ccc(F)c(-c2ccc3c(C(=O)NCCCN(C)C)n[nH]c3c2F)c1F
Second: Cc1ncc(C#N)cc1S(=O)(=O)Nc1ccc(F)c(-c2ccc3c(C(=O)NCCCO)n[nH]c3c2F)c1F
The IC50 of the first is lower: less than 500 nM for the first, 500 to 2500 nM for the second. The first is the more potent here.

Cc1c(CO)cc(F)cc1S(=O)(=O)Nc1ccc(F)c(-c2ccc3c(C(=O)NCCCN(C)C)n[nH]c3c2F)c1F and O=S(=O)(Nc1ccc(F)c(-c2ccc3c(-c4ncc[nH]4)n[nH]c3c2F)c1F)c1cc(F)cc(CO)c1F cannot be ordered by IC50: less than 500 nM for the first, less than 500 nM for the second.

Compared with COc1ncc(Cl)cc1S(=O)(=O)Nc1ccc(F)c(-c2ccc3c(-c4cc(C(F)(F)F)n[nH]4)n[nH]c3c2F)c1F, COc1ncc(Cl)cc1S(=O)(=O)Nc1ccc(F)c(-c2ccc3c(-c4ccn[nH]4)n[nH]c3c2F)c1F [Example 2BZ, 5-chloro-N-(2,4-difluoro-3-(7-fluoro-3-(1H-pyrazol-5-yl)-1H-indazol-6-yl)phenyl)-2-methoxypyridine-3-sulfonamide] is lower in IC50: 500 to 2500 nM for the first, less than 500 nM for the second. The second is the more potent here.

O=C(Nc1cn[nH]c1)c1n[nH]c2c(F)c(-c3c(F)ccc(NS(=O)(=O)c4cc(F)cc5c4CCC5O)c3F)ccc12 (stereo not shown) and O=S(=O)(Nc1ccc(F)c(-c2ccc3c(-c4ncc[nH]4)n[nH]c3c2F)c1F)c1cc(F)cc2c1CC[C@H]2O cannot be ordered by IC50: less than 500 nM for the first, less than 500 nM for the second.

First: O=S(=O)(Nc1ccc(F)c(-c2ccc3c(-c4ncc[nH]4)n[nH]c3c2F)c1F)c1cc(F)cc2c1CC/C2=N\O
Second: O=C1NCCc2cc(S(=O)(=O)Nc3ccc(F)c(-c4ccc5c(-c6ncc[nH]6)n[nH]c5c4F)c3F)cc(F)c21
The IC50 of the first is lower: less than 500 nM for the first, 2500 to 10000 nM for the second.

COc1ncc(Cl)cc1S(=O)(=O)Nc1ccc(F)c(-c2ccc3c(-c4[nH]ncc4C)n[nH]c3c2F)c1F and Cc1cc(S(=O)(=O)Nc2cc(F)cc(-c3ccc4c(-c5ncc[nH]5)n[nH]c4c3F)c2F)sn1 fall in the same range of IC50: 500 to 2500 nM for the first, 500 to 2500 nM for the second.

For CC(=O)Nc1nc(C)c(S(=O)(=O)Nc2cc(F)cc(-c3ccc4c(-c5ncc[nH]5)n[nH]c4c3F)c2F)s1, the IC50 was less than 500 nM.
